Results on 66 compounds are retold here after patent EP0730590B1, “ISOXAZOLINE AND ISOXAZOLE FIBRINOGEN RECEPTOR ANTAGONISTS” (Dupont Pharmaceuticals Company, priority 1993, dated 1995).

Protein sequences, listed by entry. Tags and fused reporters are not part of them. Chains listed by the source or under a name are the forms on record and can include a tag or linker. Residues count along the entry.
UniProt P05106, 27-788 limits assumed: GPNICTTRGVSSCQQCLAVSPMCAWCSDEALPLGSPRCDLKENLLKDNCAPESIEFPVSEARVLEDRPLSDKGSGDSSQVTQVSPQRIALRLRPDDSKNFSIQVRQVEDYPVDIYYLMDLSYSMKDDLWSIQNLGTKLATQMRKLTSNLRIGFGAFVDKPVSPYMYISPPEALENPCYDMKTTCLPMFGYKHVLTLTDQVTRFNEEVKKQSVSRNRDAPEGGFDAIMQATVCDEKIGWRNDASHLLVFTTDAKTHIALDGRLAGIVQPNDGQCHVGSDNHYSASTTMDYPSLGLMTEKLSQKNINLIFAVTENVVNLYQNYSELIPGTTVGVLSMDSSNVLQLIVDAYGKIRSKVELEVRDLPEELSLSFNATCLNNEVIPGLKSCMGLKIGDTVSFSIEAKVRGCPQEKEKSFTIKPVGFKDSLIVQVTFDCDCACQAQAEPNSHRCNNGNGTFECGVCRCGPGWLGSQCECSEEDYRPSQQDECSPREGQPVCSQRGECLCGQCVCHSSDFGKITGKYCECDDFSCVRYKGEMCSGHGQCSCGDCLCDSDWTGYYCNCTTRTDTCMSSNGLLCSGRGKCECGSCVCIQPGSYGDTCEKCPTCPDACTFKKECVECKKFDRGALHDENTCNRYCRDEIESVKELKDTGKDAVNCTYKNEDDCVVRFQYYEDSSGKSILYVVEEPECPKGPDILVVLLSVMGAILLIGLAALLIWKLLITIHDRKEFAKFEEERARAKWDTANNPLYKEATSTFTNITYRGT
UniProt P08514, with tags, fused parts or gaps limits assumed: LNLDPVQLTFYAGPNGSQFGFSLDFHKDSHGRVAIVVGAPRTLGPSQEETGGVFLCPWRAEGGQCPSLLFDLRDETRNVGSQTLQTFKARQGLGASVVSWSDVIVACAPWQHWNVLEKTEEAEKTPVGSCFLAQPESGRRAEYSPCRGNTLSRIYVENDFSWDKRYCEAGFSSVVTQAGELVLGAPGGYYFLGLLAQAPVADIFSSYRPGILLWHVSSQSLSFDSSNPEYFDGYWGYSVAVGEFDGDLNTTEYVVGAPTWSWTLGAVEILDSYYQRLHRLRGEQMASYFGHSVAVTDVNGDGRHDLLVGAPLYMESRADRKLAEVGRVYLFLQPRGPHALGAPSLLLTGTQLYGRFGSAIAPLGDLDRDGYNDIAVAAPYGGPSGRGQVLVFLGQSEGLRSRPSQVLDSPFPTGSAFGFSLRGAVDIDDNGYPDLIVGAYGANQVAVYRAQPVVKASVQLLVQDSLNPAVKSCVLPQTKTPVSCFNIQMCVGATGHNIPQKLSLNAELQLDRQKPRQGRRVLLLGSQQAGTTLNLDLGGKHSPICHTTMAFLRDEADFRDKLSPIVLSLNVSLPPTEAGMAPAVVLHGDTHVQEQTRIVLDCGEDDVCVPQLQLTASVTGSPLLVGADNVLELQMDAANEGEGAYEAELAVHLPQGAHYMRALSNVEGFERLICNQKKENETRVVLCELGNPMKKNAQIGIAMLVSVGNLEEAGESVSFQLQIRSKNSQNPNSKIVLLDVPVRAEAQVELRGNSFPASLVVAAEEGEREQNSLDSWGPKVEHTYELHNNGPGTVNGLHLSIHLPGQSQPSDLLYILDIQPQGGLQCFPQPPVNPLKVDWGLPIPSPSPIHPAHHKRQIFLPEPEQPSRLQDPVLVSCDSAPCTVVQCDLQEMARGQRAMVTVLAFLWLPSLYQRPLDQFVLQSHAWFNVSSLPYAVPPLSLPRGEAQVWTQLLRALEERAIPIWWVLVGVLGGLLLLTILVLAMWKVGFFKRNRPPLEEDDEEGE

Bounds are passed on as bounds.

For one experiment, the target named is agonist-induced platelet aggregation (Homo sapiens, UniProt P05106+P08514). The experiment is described as follows: Platelet Aggregation Assay in platelet-rich plasma (PRP). The class given is cell-based. To be noted: read-out: Platelet Aggregation Assay IC50 (without esterase).
The IC50 is the midpoint of a concentration-inhibition curve. Regarding `N=C(N)c1ccc(C2=NOC(CC(=O)NCC(NC(=O)OCc3ccccc3Cl)C(=O)O)C2)cc1` (stereo not drawn), the IC50 was under 10 µM.

On to `CCCCCCOC(=O)NC(CNC(=O)CC1CC(c2ccc(C(=N)N)cc2)=NO1)C(=O)O` (stereo not drawn), for which the IC50 was under 10 µM.

On to `N=C(N)c1ccc(C2=NOC(CC(=O)NCC(NC(=O)OCCC3CC3)C(=O)O)C2)cc1` (stereo not drawn), for which the IC50 was under 10 µM.

For the compound `COC(=O)C[C@H](NC(=O)CC1CC(c2ccc(C(=N)N)cc2)=NO1)C(=O)OC` (stereo partly drawn), the IC50 was 50 to 100 µM.

As for `N=C(N)c1ccc(C2=NOC(CC(=O)NC(CC(=O)O)C(=O)NCC34CC5CC(CC(C5)C3)C4)C2)cc1` (stereo not drawn), the IC50 is under 10 µM.

Turning to `N=C(N)c1ccc(C2=NOC(CC(=O)NCC(NC(=O)OCCC3CCCC3)C(=O)O)C2)cc1` (stereo not drawn), the IC50 was under 10 µM.

Turning to `COC(=O)[C@H](CNC(=O)CC1CC(CCC2CCNCC2)=NO1)NC(=O)OCc1ccccc1` (stereo partly drawn), the IC50 is 50 to 100 µM.

On to `COC(=O)C[C@H](NC(=O)CC1CC(c2ccc(C(=N)N)cc2)=NO1)C(=O)N(C)C` (stereo partly drawn), for which the IC50 lay within 50 to 100 µM.

`Cc1cccc(S(=O)(=O)N[C@@H](CNC(=O)CC2CC(c3ccc(C(=N)N)cc3)=NO2)C(=O)O)c1` (stereo partly drawn): the IC50 is under 10 µM.

With `N=C(N)c1ccc(C2=NOC(CC(=O)NC(CCc3cccnc3)CC(=O)O)C2)cc1` (single isomer, unassigned), the IC50 is under 10 µM.

In the case of `N=C(N)c1ccc(C2=NOC(CC(=O)NC(CCCc3ccccc3)CC(=O)O)C2)cc1` (single isomer, unassigned), the IC50 was under 10 µM.

Consider `N=C(N)c1ccc(C2=NOC(CC(=O)NCC(NC(=O)OCCCC(F)(F)F)C(=O)O)C2)cc1` (stereo not drawn), for which the IC50 was under 10 µM.

In the case of `COC(=O)C[C@H](NC(=O)CC1CC(c2ccc(C(=N)N)cc2)=NO1)C(=O)NCC12CC3CC(CC(C3)C1)C2` (stereo partly drawn), the IC50 was under 10 µM.

Consider `CC(C)COC(=O)NC(CNC(=O)CC1CC(c2ccc(C(=N)N)cc2)=NO1)C(=O)O` (stereo not drawn), for which the IC50 was under 10 µM.

Turning to `N=C(N)c1ccc(C2=NOC(CC(=O)NCC(NC(=O)OCc3ccccc3Br)C(=O)O)C2)cc1` (stereo not drawn), the IC50 was under 10 µM.

For the compound `CCCCOC(=O)NC(CNC(=O)CC1CC(CCCC2CCNCC2)=NO1)C(=O)OC` (stereo not drawn), the IC50 was under 10 µM.

Another experiment addresses human platelet rich plasma (Homo sapiens, UniProt P05106+P08514). The experiment is described as follows: Platelet Aggregation Assay, ester prodrugs preincubated with porcine liver esterase. Conditions: read-out: Platelet Aggregation Assay IC50 (with esterase), platelet rich plasma (PRP).
On to `CCCCCCOC(=O)NC(CNC(=O)CC1CC(c2ccc(C(=N)N)cc2)=NO1)C(=O)OC` (stereo not drawn), for which the IC50 is under 10 µM.

For `COC(=O)[C@H](CNC(=O)CC1CC(c2ccc(C(=N)N)cc2)=NO1)NS(=O)(=O)c1cccc2ccccc12` (stereo partly drawn), the IC50 was under 10 µM.

`CCCC[C@H](CC(=O)OC)NC(=O)CC1CC(c2ccc(C(=N)N)cc2)=NO1` (stereo partly drawn): the IC50 is under 10 µM.

On to `CCCS(=O)(=O)NC(CNC(=O)CC1CC(c2ccc(C(=N)N)cc2)=NO1)C(=O)OC` (stereo not drawn), for which the IC50 was under 10 µM.

Consider `COC(=O)C(CNC(=O)CC1CC(c2ccc(C(=N)N)cc2)=NO1)NS(=O)(=O)c1ccccc1C` (stereo not drawn), for which the IC50 is under 10 µM.

Consider `CCOC(=O)C[C@@H](CC(C)C)NC(=O)CC1CC(c2ccc(C(=N)N)cc2)=NO1` (stereo partly drawn), for which the concentration for half-maximal inhibition (IC50) is under 10 µM.

`COC(=O)CC(CCc1cccnc1)NC(=O)CC1CC(c2ccc(C(=N)N)cc2)=NO1` (single isomer, unassigned): the IC50 is under 10 µM.

In the case of `COC(=O)C[C@H](NC(=O)CC1CC(c2ccc(C(=N)N)cc2)=NO1)C(=O)OC` (stereo partly drawn), the IC50 is under 10 µM.

In the case of `COC(=O)C(CNC(=O)CC1CC(c2ccc(C(=N)N)cc2)=NO1)NS(=O)(=O)c1cc2ccccc2s1` (stereo not drawn), the IC50 was under 10 µM.

For the compound `COC(=O)C(CNC(=O)CC1CC(c2ccc(C(=N)N)cc2)=NO1)NS(=O)(=O)c1ccc(-c2cc(C(F)(F)F)n(C)n2)s1` (stereo not drawn), the IC50 was under 10 µM.

For `COC(=O)CC(NC(=O)CC1CC(c2ccc(C(=N)N)cc2)=NO1)C(=O)NC12CC3CC(CC(C3)C1)C2` (stereo not drawn), the IC50 was under 10 µM.

As for `COC(=O)C(CNC(=O)CC1CC(c2ccc(C(=N)N)cc2)=NO1)NC(=O)OCc1ccccc1Br` (stereo not drawn), the IC50 was under 10 µM.

`COC(=O)C(CNC(=O)CC1CC(c2ccc(C(=N)N)cc2)=NO1)NC(=O)OCCC1CCCC1` (stereo not drawn): the IC50 is under 10 µM.

With `COC(=O)C(CNC(=O)CC1CC(c2ccc(C(=N)N)cc2)=NO1)NS(=O)(=O)c1c(C)nn(C)c1Cl` (stereo not drawn), the IC50 was under 10 µM.

Turning to `COC(=O)C(CNC(=O)CC1CC(c2ccc(C(=N)N)cc2)=NO1)NS(=O)(=O)c1sccc1Br` (stereo not drawn), the IC50 was under 10 µM.

For the compound `COC(=O)CC(NC(=O)CC1CC(c2ccc(C(=N)N)cc2)=NO1)C(=O)N(C)CCc1ccccc1` (stereo not drawn), the IC50 was under 10 µM.

For the compound `COC(=O)CC(NC(=O)CC1CC(c2ccc(C(=N)N)cc2)=NO1)C(=O)N1CCCc2ccccc21` (stereo not drawn), the IC50 was under 10 µM.

For the compound `COC(=O)[C@H](CNC(=O)CC1CC(CCC2CCNCC2)=NO1)NC(=O)OCc1ccccc1` (stereo partly drawn), the IC50 is under 10 µM.

Turning to `COC(=O)C[C@H](NC(=O)CC1CC(c2ccc(C(=N)N)cc2)=NO1)C(=O)N(C)C` (stereo partly drawn), the IC50 was in the range of 10 to 50 µM.

As for `COC(=O)CC(NC(=O)CC1CC(c2ccc(C(=N)NC(=O)OC(C)(C)C)cc2)=NO1)C(=O)N1CCN(Cc2ccccc2)CC1` (stereo not drawn), the IC50 was under 10 µM.

As to `COC(=O)C(CNC(=O)CC1CC(c2ccc(C(=N)N)cc2)=NO1)NS(=O)(=O)c1cc(C)c(Cl)cc1C` (stereo not drawn), the IC50 is under 10 µM.

Take `COC(=O)C(CNC(=O)CC1CC(c2ccc(C(=N)N)cc2)=NO1)NS(=O)(=O)c1ccc(-c2ccon2)s1` (stereo not drawn): the IC50 was under 10 µM.

For the compound `CCOC(=O)CC(CCCC(C)C)NC(=O)CC1CC(c2ccc(C(=N)N)cc2)=NO1` (stereo not drawn), the IC50 fell in the range of 10 to 50 µM.

On to `COC(=O)C[C@@H](CC(C)C)NC(=O)CC1CC(c2ccc(C(=N)N)cc2)=NO1` (stereo partly drawn), for which the IC50 was under 10 µM.

`COC(=O)C(CNC(=O)CC1CC(c2ccc(C(=N)N)cc2)=NO1)NC(=O)OCCCC(F)(F)F` (stereo not drawn): the IC50 is under 10 µM.

As to `COC(=O)CC(CCCc1ccccc1)NC(=O)CC1CC(c2ccc(C(=N)N)cc2)=NO1` (stereo not drawn), the IC50 is under 10 µM.

With `COC(=O)C(CNC(=O)CC1CC(c2ccc(C(=N)N)cc2)=NO1)NC(=O)OCC(C)C` (stereo not drawn), the IC50 is under 10 µM.

`CCc1ccc(C(=O)NC(CNC(=O)CC2CC(c3ccc(C(=N)N)cc3)=NO2)C(=O)OC)cc1` (stereo not drawn): the IC50 was under 10 µM.

With `COC(=O)CC(CNS(=O)(=O)N(C)C)NC(=O)CC1CC(c2ccc(C(=N)N)cc2)=NO1` (stereo not drawn), the IC50 is under 10 µM.

Take `COC(=O)C(CNC(=O)CC1CC(c2ccc(C(=N)N)cc2)=NO1)NS(=O)(=O)c1sc2ccccc2c1C` (stereo not drawn): the IC50 was under 10 µM.

For the compound `COC(=O)C(CNC(=O)CC1CC(c2ccc(C(=N)N)cc2)=NO1)NS(=O)(=O)c1ccccc1Br` (stereo not drawn), the IC50 was under 10 µM.

`CCCCOC(=O)NC(CNC(=O)CC1CC(c2ccc(C(=N)N)cc2F)=NO1)C(=O)OC` (stereo not drawn): the IC50 is under 10 µM.

With `COC(=O)C(CNC(=O)CC1CC(c2ccc(C(=N)N)cc2)=NO1)NC(=O)NCc1ccccc1` (stereo not drawn), the IC50 is under 10 µM.

As to `COC(=O)CC(NC(=O)CC1CC(c2ccc(C(=N)N)cc2)=NO1)C(=O)N1CCN(Cc2ccccc2)CC1` (stereo not drawn), the IC50 is under 10 µM.

On to `COC(=O)[C@H](CNC(=O)CC1CC(c2ccc(C(=N)N)cc2)=NO1)NS(=O)(=O)c1cccc(C)c1` (single isomer, unassigned), for which the IC50 was under 10 µM.

In the case of `COC(=O)C(CNC(=O)CC1CC(c2ccc(C(=N)N)cc2)=NO1)NC(=O)OCCC1CC1` (stereo not drawn), the IC50 is under 10 µM.

Take `COC(=O)CC(NC(=O)CC1CC(c2ccc(C(=N)N)cc2)=NO1)C(=O)N1CCc2ccccc2C1` (stereo not drawn): the IC50 is under 10 µM.

For the compound `COC(=O)CC(NC(=O)CC1CC(c2ccc(C(=N)N)cc2)=NO1)C(=O)N1CCSC1` (stereo not drawn), the IC50 was under 10 µM.

As to `COC(=O)C(CNC(=O)CC1CC(c2ccc(C(=N)N)cc2)=NO1)NS(=O)(=O)c1cccc(Br)c1` (stereo not drawn), the IC50 is under 10 µM.

Turning to `COC(=O)C(CNC(=O)CC1CC(c2ccc(C(=N)N)cc2)=NO1)NS(=O)(=O)c1cccc(Cl)c1Cl` (stereo not drawn), the IC50 was under 10 µM.

For the compound `COC(=O)C(CNC(=O)CC1CC(c2ccc(C(=N)N)cc2)=NO1)NS(=O)(=O)c1ccc(Br)s1` (stereo not drawn), the IC50 was under 10 µM.

`COC(=O)C(CNC(=O)CC1CC(c2ccc(C(=N)N)cc2)=NO1)NS(=O)(=O)c1ccc(Br)cc1` (stereo not drawn): the IC50 is under 10 µM.

`COC(=O)C(CNC(=O)CC1CC(c2ccc(C(=N)N)cc2)=NO1)NC(=O)c1ccc2ccccc2c1` (stereo not drawn): the IC50 is under 10 µM.

For the compound `COC(=O)C(CNC(=O)CC1CC(c2ccc(C(=N)N)cc2)=NO1)NS(=O)(=O)c1ccc(-c2ccccn2)s1` (stereo not drawn), the IC50 is under 10 µM.

As for `COC(=O)[C@H](CNC(=O)CC1CC(c2ccc(C(=N)N)cc2)=NO1)NS(=O)(=O)c1ccc2ccccc2c1` (stereo partly drawn), the IC50 was under 10 µM.

`COC(=O)CC(NC(=O)CC1CC(c2ccc(C(=N)N)cc2)=NO1)C(=O)N1CCSCC1` (stereo not drawn): the IC50 was under 10 µM.

Regarding `COC(=O)CC(CN(C)C)NC(=O)CC1CC(c2ccc(C(=N)N)cc2)=NO1` (single isomer, unassigned), the IC50 is under 10 µM.

Regarding `COC(=O)C(CNC(=O)CC1CC(c2ccc(C(=N)N)cc2)=NO1)NS(=O)(=O)c1sc(NC(C)=O)nc1C` (stereo not drawn), the 50% inhibitory concentration (IC50) is under 10 µM.

For the compound `COC(=O)CC(NC(=O)CC1CC(c2ccc(C(=N)N)cc2)=NO1)C(=O)NC1C2CC3CC(C2)CC1C3` (stereo not drawn), the IC50 is under 10 µM.

Turning to `CCOC(=O)CC(NC(=O)CC1CC(c2ccc(C(=N)N)cc2)=NO1)C(=O)NCC12CC3CC(CC(C3)C1)C2` (stereo not drawn), the IC50 was under 10 µM.

Turning to `COC(=O)[C@H](CNC(=O)CC1CC(c2ccc(C(=N)N)cc2)=NO1)NS(=O)(=O)C=Cc1ccccc1` (stereo partly drawn), the IC50 is under 10 µM.

For `COC(=O)C(CNC(=O)CC1CC(c2ccc(C(=N)N)cc2)=NO1)NC(=O)OCc1ccccc1Cl` (stereo not drawn), the IC50 is under 10 µM.

Turning to `COC(=O)CC(CN1CCCC1)NC(=O)CC1CC(c2ccc(C(=N)N)cc2)=NO1` (stereo not drawn), the IC50 is under 10 µM.
